Source: patent publication US7462599B2, “Use of effectors of glutaminyl and glutamate cyclases” (Probiodrug AG, priority 2003, dated 2008)

Chains of the proteins cited; added tags and fusions are not shown. Residues count along the entry.
UniProt Q16769, 29-361: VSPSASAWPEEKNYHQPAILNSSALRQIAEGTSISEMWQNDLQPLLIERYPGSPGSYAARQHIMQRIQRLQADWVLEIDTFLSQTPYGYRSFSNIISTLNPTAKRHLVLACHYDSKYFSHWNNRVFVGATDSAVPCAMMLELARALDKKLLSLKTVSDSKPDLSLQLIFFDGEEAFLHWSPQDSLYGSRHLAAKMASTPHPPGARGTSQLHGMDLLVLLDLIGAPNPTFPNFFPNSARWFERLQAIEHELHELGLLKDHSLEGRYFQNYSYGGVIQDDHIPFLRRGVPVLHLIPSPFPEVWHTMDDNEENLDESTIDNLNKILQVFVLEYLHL

Biological target: QC (Homo sapiens, UniProt Q16769)
Test: Continuous spectrophotometric assay of substrate conversion, human QC;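 also: initial rates read at 30 °C in a microplate reader, with activity quantified against an ammonia calibration curve under the same assay conditions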
Assay type: biochemical
Parameters: The cDNA of the mature QC starting with codon 38 was fused in frame with the plasmid encoded 6× histidine tag; 6x histidine tag; made in house; host or cells: Pichia pastoris X33 (pPICZαB); also E. coli M15 (pQE-31)

| Ki* (Table 6, for substrate inhibition, n.i. = no inhibition) | kcat (Table 6, n.r. = not reactive) [s⁻¹] | SMILES | Ki [µM] | Km [µM] | Ki (pH 8) | Km (pH 8) |
| --- | --- | --- | --- | --- | --- | --- |
|  |  | NC(=O)CC[C@H](N)C(=O)Nc1ccc2ccccc2c1 [H-Gln-βNA] | 1210 ± 70 | 70 ± 3 | 1390 µM and 970 µM | 76 µM and 63 µM |
| n.i. | 13.2 ± 0.2 | NC(=O)CC[C@H](N)C(=O)NCC(=O)O [H-Gln-Gly-OH] |  |  |  |  |

“And” between values parts separate entries of the source, which are not always exact repeats. Equal entries are not always repeated. Where two headings read alike, the source gives them in different places.
